The values that follow come from patent publication US8084645B2, “4-phenylamino-benzaldoxime derivatives and uses thereof as mitogen-activated protein kinase kinase (MEK) inhibitors” (Chugai Seiyaku Kabushiki Kaisha, priority 2003, dated 2011).

This assay concerns Human colon cancer cell line HT-29. Briefly: Determination of the activity of inhibiting cell proliferation (Cell Counting Kit-8). To be noted: read-out: Cell proliferation inhibitory activity (HT29) IC50; HT29, 2,000 cells/well, incubated four days. A general note: Tetrazolium dyes change colour on reduction, which living cells bring about.

Take `O=C(NOCCO)c1cc(/C=N/OCCN2CCCC2=O)c(F)c(F)c1Nc1ccc(I)cc1F`: the IC50 came to 35 nM.
